Measured values published in patent US7115258B2, “Vesicular monoamine transporter gene therapy in parkinson's disease” (priority 1998, dated 2006).

By UniProt entry, the sequences of proteins in these tests, tags left out.
UniProt Q01827, whole entry: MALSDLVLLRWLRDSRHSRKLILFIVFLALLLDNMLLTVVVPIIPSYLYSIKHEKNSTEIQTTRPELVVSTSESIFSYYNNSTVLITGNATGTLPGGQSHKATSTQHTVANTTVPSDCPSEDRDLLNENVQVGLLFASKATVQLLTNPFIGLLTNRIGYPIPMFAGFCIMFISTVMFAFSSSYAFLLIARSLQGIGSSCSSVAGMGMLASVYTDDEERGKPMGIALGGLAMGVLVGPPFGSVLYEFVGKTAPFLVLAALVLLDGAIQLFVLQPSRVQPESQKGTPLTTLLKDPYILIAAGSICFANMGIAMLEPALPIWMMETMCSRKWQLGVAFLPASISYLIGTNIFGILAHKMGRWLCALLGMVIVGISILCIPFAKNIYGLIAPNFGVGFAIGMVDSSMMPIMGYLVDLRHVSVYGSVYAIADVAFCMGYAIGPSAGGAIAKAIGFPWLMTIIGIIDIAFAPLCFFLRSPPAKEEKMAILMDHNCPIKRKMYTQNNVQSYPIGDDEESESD

Biological target: T1, VMAT (Rattus norvegicus, UniProt Q01827)
T1 construct: The 1.6 kilobase fragment containing the full coding lesion and the part of the 3′ untranslated lesion of rat VMAT-2 cDNA; expressed in transfected cells; host or cells: primary skin fibroblasts from Fischer 344 rats, retrovirally transduced (LINX vector, PhCMV*-1 promoter, PA317 producer line); PFVMAA cells also express bovine AADC
Test: Effect of VMAT inhibitor reserpine on dopamine and DOPAC in PFVMAA cells
Format: cell-based
Conditions: reserpine 3 μM with L-DOPA 1 μM, 2 hours
Protocol: FIG. 2A–FIG. 2D. Dopamine production and storage in genetically modified fibroblast cells from exogenous L-DOPA. Time course of intracellular (FIG. 2A) and extracellular (FIG. 2B) dopamine levels in PFAADC cells (open circle) and PFVMAA cells (solid circle) after 1 μM L-DOPA incubation for various duration (0 to 6 hours). The dopamine (FIG. 2C) and DOPAC (FIG. 2D) levels in PFAADC cells and PFVMAA cells after 2 hour-incubation with 1 μM L-DOPA and 3 μM reserpine (+rsp) or without reserpine (−rsp). The catecholamine levels were measured both in the media (solid bar) and in the cells (open bar). Data represent the mean±SEM (n=3), from a representative set of several experiments. n.d., nondetectable levels. * p<0.01, Newman-Keuls post-hoc analysis.
This is consistent with metabolism of cytoplasmic dopamine by monoamine oxidase (MAO) in PFAADC cells or PFVMAA cells with reserpine. On the other hand, dopamine is protected from the metabolism because it is sequestrated in the vesicles of PFVMAA cells. […] In summary, VMAT-2 not only increases the intracellular storage capacity and reduce metabolism of dopamine, but also increase overall production of dopamine in fibroblasts genetically modified with AADC (see Table 2).

COC(=O)[C@H]1[C@H]2C[C@@H]3c4[nH]c5cc(OC)ccc5c4CCN3C[C@H]2C[C@@H](OC(=O)c2cc(OC)c(OC)c(OC)c2)[C@@H]1OC [reserpine]
effect on DOPAC levels of PFVMAA cells: increased DOPAC levels to that of PFAADC
effect on extracellular dopamine level of PFVMAA cells: decreased extracellular dopamine level of PFVMAA to the levels comparable to that of PFAADC cells
effect on intracellular dopamine of PFVMAA cells: depleted intracellular dopamine from PFVMAA completely
